Measured values reported in US20110021524A1, “COMPOSITIONS AND METHODS FOR TREATING CANCERS” (IRM LLC, priority 2008, published 2011).

Tests used:
M351T BCR-ABL = target: T1, M351T BCR-ABL (Homo sapiens, UniProt P00519, M351T); assay: Ba/F3 cellular proliferation assay, M351T BCR-ABL; type: cell-based; conditions: Ba/F3 cells, 48 hour; read-out: IC50, cellular potency against M351T mutant
T1 construct: BCR (N-terminal fusion partner); human BCR, P11274; expressed in transfected cells; host or cells: Ba/F3; the other entry of the earlier key: BCR (P11274, Breakpoint cluster region protein)

G250E BCR-ABL = target: T2, G250E BCR-ABL (Homo sapiens, UniProt P00519, G250E); assay: Ba/F3 cellular proliferation assay, G250E BCR-ABL; type: cell-based; conditions: Ba/F3 cells, 48 hour; read-out: IC50, G250E mutant
T2 construct: BCR (N-terminal fusion partner); human BCR, P11274; expressed in transfected cells; host or cells: Ba/F3; the other entry of the earlier key: BCR (P11274, Breakpoint cluster region protein)

T315I BCR-ABL [1] = target: T3, T315I BCR-ABL (Homo sapiens, UniProt P00519, T315I); conditions: read-out: IC50, T315I BCR-ABL-dependent proliferation
T315I BCR-ABL [2] = target: T3, T315I BCR-ABL; assay: cell-based

## O=C(NCCO)c1cccc(-c2cc(Nc3ccc(OC(F)(F)F)cc3)ncn2)c1 [GNF-5, N-(2-hydroxyethyl)-3-(6-(4-(trifluoromethoxy)phenylamino)pyrimidin-4-yl)benzamide]
M351T BCR-ABL
  IC50: 930 nM
G250E BCR-ABL
  IC50: 4520 nM
T315I BCR-ABL [1]
  IC50: 760 nM
T315I BCR-ABL [2]
  IC50: > 5000 nM

Read-outs that look alike come from different tables or passages of the source.
